By EC50 is commonly meant the concentration that produces a half-maximal response. What is called Ki is a measure of affinity in units of concentration, obtained from inhibition or displacement.

Protein sequences, listed by entry. Tags and fused reporters are not part of them.
UniProt P31424, whole entry: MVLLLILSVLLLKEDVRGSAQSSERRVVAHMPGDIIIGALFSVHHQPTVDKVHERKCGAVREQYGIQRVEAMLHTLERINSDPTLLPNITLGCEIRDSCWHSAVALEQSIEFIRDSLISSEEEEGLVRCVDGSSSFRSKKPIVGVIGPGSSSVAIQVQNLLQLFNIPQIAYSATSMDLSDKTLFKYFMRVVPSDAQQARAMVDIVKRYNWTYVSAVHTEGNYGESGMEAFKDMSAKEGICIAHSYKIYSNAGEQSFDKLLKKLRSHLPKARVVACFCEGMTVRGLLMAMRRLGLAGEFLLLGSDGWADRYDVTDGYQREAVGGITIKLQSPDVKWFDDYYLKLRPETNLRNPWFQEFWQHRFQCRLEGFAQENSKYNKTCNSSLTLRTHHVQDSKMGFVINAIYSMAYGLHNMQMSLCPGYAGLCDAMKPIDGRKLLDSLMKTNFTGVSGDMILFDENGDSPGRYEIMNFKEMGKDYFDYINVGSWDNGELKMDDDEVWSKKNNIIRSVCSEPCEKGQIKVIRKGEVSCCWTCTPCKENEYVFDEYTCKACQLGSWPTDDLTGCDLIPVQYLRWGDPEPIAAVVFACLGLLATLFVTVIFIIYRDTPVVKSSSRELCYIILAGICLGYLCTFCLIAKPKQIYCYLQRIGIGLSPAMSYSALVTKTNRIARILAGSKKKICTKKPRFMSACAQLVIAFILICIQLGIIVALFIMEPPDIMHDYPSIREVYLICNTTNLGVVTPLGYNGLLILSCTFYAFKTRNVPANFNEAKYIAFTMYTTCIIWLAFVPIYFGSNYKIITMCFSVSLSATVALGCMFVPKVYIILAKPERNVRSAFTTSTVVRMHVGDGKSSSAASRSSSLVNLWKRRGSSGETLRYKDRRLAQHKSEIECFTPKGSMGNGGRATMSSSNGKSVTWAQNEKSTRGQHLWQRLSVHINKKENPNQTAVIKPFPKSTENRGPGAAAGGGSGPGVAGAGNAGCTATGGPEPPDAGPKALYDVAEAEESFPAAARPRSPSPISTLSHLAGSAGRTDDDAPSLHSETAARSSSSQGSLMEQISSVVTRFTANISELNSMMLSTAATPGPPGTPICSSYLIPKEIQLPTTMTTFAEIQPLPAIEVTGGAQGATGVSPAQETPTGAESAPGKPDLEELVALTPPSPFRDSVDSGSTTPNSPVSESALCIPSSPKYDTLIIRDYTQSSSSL

In assay [1] the target is T1, Metabotropic glutamate receptor 5 (Rattus norvegicus, UniProt P31424). Nature of the assay: Activity at mGluR5 assessed as potentiation of glutamate-induced calcium flux in rat astrocytes. The format is functional, cell-based. Put shortly:
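Cortical astrocytes from 2-4-day-old Sprague Dawley rats, grown 1 week in DMEM/10% FBS/2 mM glutamine/20 mM HEPES at 37 °C, 5% CO2, then plated on poly-D-lysine. Dye-loaded 1 h at 37 °C; HBSS with 20 mM HEPES, 2.5 mM probenecid, pH 7.4.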
(A change in cytosolic calcium serves as a functional read-out for many receptors and channels.)

Assay [2] addresses T1, Metabotropic glutamate receptor 5. Nature of the assay: Displacement of [3H]methoxyPEPy from rat mGluR5 expressed in HEK293 cells. The assay is classed as cell-based. In a few lines: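 Membranes from stable HEK cells expressing rat mGluR5a, resuspended in 50 mM Tris HCl/0.9% saline, pH 7.4. Final: 2 nM [3H]methoxyPEPy, 0.1 mg protein/mL, 0.13% DMSO, triplicate; 60 min at room temperature with shaking. Filtration onto GF/B filters, scintillation counting. Nonspecific binding with 5 µM MPEP. Ki derived from IC50 by nonlinear fit; mean ± SEM of three experiments.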
(In general: Loss of bound radioactivity is the signal in a displacement assay; it reports binding, not function.)

Take `N#Cc1cccc(C(=O)Nc2cc(-c3ccccc3)nn2-c2ccccc2)c1`: the EC50 in assay [1] stood at 77 nM. The compound further registered a Ki in assay [2] of 3760 nM.

(Values after ChEMBL document CHEMBL1148504, “Substituent effects of N-(1,3-diphenyl-1H-pyrazol-5-yl)benzamides on positive allosteric modulation of the metabotropic glutamate-5 receptor in rat cortical astrocytes” (J Med Chem, 2006).)
